IC50 data for one compound are collected here from patent US7737153B2, “Heteroaryloxy-substituted phenylaminopyrimidines as rho-kinase inhibitors” (Bayer Schering Pharma Aktiengesellschaft, priority 2002, dated 2010).

The assay concerns isolated rings of the saphenous artery of rabbits. In words: Vessel-relaxing action in vitro, phenylephrin-induced contractions of isolated saphenous artery rings. On the set-up: species or system rabbit. As to conditions: Oryctolagus cuniculus; contraction induced by 3×10^−8 g of phenylephrin/ml; concentration reducing control contraction by 50%. Here is the method:
The inhibition of the enzyme is investigated in an in vitro assay with recombinant Rho kinase II. The vessel-relaxing action is determined using phenylephrin-induced contractions of isolated rings of the saphenous artery of rabbits.
Vessel-Relaxing Action In Vitro
Individual 3-mm-wide rings of the isolated saphenous artery of rabbits are introduced into 5 ml organ baths with Krebs-Henseleit solution (37° C., gassed with carbogen). The vessel tone is monitored isometrically and registered. Contractions are induced by addition of 3×10^−8 g of phenylephrin/ml, which is washed out again after 4 min. After a number of control cycles, the rings are pre-incubated with the substance to be examined, with the dosage being increased for each further cycle, and the subsequent contraction is compared to the intensity of the last control contraction.

Molecules are shown by their SMILES.

What is called IC50 is the concentration that inhibits the measured activity by half. In the case of `Nc1nc(Nc2ccc(Oc3ccnc4[nH]ccc34)c(F)c2)cc(-c2ccncc2)n1` [Example 19, N-[2-Amino-6-(4-pyridinyl)-4-pyrimidinyl]-N-[3-fluoro-4-(1H-pyrrolo[2,3-b]pyridin-4-yloxy)phenyl]amine], the midpoint of inhibition, the IC50, lay at 350 nM.
